HCMV NEC inh: inhibitors of HCMV UL50-UL53 nuclear egress complex interaction. HTRF UL50-UL53 interaction, normalized percent inhibition. hit rate 0.15% among 190,000. inhibition, % (test concentration not listed); in the data active = inhibition above about 27%, passing the limit was not always enough
GIV-Gai inh: inhibitors of GIV GBA-motif binding to rat Galpha-i3; P08753; Galpha-i3/FITC-GIV peptide fluorescence polarization, 90 min; active compounds read low; scaled: aluminum fluoride 0%, vehicle 100%; percent of control (FP), % (test concentration not listed); 210,000 tested, 0.42% active; AID 1224905;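 active = replicate mean at 85% of control or lower, very high polarization wells dropped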;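 note: lower values mean more displacement of the GIV peptide from Galpha-i3; wells of about 15 µL received 100 nL stock; the first replicate is given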
Hits are given with their value; 0 = inactive; - = no result given. A selection: hits, their analogues and other compounds. The true share with any hit is near 0.43%.

SMILES	HCMV NEC inh	GIV-Gai inh
CCOC(=O)c1c(C=O)oc2c(C)cc(OC(=O)c3cccc(Br)c3)c(Br)c12	0	0
CCCCCCCOC1OC(COC(C)=O)C(OC(C)=O)C(OC(C)=O)C1NC(C)=O (configuration not stated)	-	0
O=c1c2ccccc2n2c(-c3ccc(F)c(F)c3)nnc2n1CCc1ccccc1	0	0
O=c1c2ccccc2n2c(-c3ccc(Cl)cc3)nnc2n1CCc1ccccc1	59	0
Cc1nn(-c2ccc(Cl)nn2)c2c1CCC2	0	0
Cc1cc2nc(COc3cc(Cl)ccc3NC(=O)CCC3CCCC3)cc(=O)n2o1	0	0
O=C(CSc1ccc2c3c(cccc13)C(=O)c1ccccc1-2)Nc1ccccc1	-	0
COCCCNC(=O)CSc1ccc2c3c(cccc13)C(=O)c1ccccc1-2	-	-73
COc1cc(/C=C(\C#N)C(=O)N2CCOCC2)cc(OC)c1OC	0	0
CCCS(=O)(=O)N1N=C(c2ccc(C)cc2)CC1c1ccco1 (configuration not stated)	0	7.4
CCCS(=O)(=O)N1N=C(c2ccc(Cl)cc2)CC1c1ccco1 (configuration not stated)	0	0
O=c1[nH]c(=O)n(-c2ccccc2)c(O)c1C=Nc1ccc(S(=O)(=O)N2CCCCC2)cc1	0	0
O=S(=O)(c1ccc(N=Cc2c(O)ccc3ccccc23)cc1)N1CCCCC1	76	-
NS(=O)(=O)c1ccc(N=Cc2c(O)ccc3ccccc23)cc1	97	-
O=S(=O)(/N=C/c1c(O)ccc2ccccc12)c1ccccc1	-	0
COc1ccc(C(=O)Oc2c(Cl)cc(/C=C3\SC(N)=NC3=O)cc2OC)cc1	0	0
Cc1ccc2nc(SCC(=O)N3CCc4ccccc43)nc(=O)n2c1	0	0
CCN1CC2=C(OC(N)=C(C#N)C2c2ccc(F)cc2)/C(=C/c2ccc(F)cc2)C1 (configuration not stated)	-	0
N#CC1=C(N)OC2=C(CC/C2=C/c2ccccc2)C1c1ccccc1 (configuration not stated)	0	-57
Cc1c(C)c(C)c(C(=O)CC2(O)C(=O)Nc3ccccc32)c(C)c1C (configuration not stated)	-	0
COc1cccc(C(=O)Nc2nnc(SCc3ccccc3)s2)c1	0	-
COc1cccc(C(=O)c2sc3nsc(SCc4ccccc4)c3c2N)c1	0	-42
CC(C)CSc1nnc2n(-c3ccccc3)c(=O)c3ccccc3n12	0	-
CCN1C/C(=C/c2cc(C)n(C3CC3)c2C)C(=O)/C(=C\c2cc(C)n(C3CC3)c2C)C1	0	-
N#Cc1c(N)nc(SCC(=O)c2ccc(Br)cc2)c(C#N)c1-c1ccccc1	0	0
SMILES	HCMV NEC inh	GIV-Gai inh
CCOc1ccc(-c2c(C#N)c(N)nc(SCC(=O)OC)c2C#N)cc1	73	0
N#Cc1c(N)nc(SCC(=O)Nc2ccc([N+](=O)[O-])cc2)c(C#N)c1-c1ccco1	0	0
COc1ccc(-c2c(C#N)c(N)nc(SCC(=O)OCc3ccccc3)c2C#N)cc1	0	0
N#Cc1c(N)nc(SCC(=O)Nc2ccccc2)c(C#N)c1-c1ccccc1	24	0
N#Cc1c(N)nc(SCC(=O)c2ccc(Br)cc2)c(C#N)c1-c1cccs1	40	0
Cc1csc(-c2cc(S(=O)(=O)N3CCCC3)cn2CC(=O)N2CCCC2)n1	-	0
Cn1nnnc1SCC(=O)NC(=O)Nc1ccc2c(c1)OCCO2	0	-
CSc1nnc2c(n1)OC1(Nc3ccccc3-2)C(=O)Nc2ccc(Cl)cc21 (configuration not stated)	50	0
CCSc1nnc2c(n1)OC1(Nc3ccccc3-2)C(=O)Nc2ccc(Br)cc21 (configuration not stated)	0	-
CCOC(=O)Nc1ccc(Cl)cc1	0	-
O=c1[nH]c2cc(Br)cnc2[nH]1	77	0
O=c1[nH]c2ccccc2[nH]1	0	-
Cc1ccc(S(=O)(=O)c2cnc(N3CCN(c4ccccc4F)CC3)nc2N)cc1C	-	0
Clc1ccc(C2=CC(c3ccc(Br)cc3)n3ncnc3N2)s1 (configuration not stated)	-	-22
Cc1ccsc1C1C=C(c2ccc(Br)cc2)Nc2ncnn21 (configuration not stated)	-	0
CCCCC[C@H](O)/C=C/[C@H]1C2CC(CO2)[C@@H]1C/C=C\CCCC(=O)O (some centres not stated)	0	-
CC(C)(C)c1ccc(C(=O)CC(C(=O)O)N2CCCCC2)cc1 (configuration not stated)	0	-
O=C1c2ccccc2-c2nn(C(=O)c3ccc(Br)s3)c3cccc1c23	0	-
Cc1ccc(OCC(=O)N2CCN(c3nc4ccccc4cc3-c3noc(C)n3)CC2)cc1	0	0
CNC(=O)c1cc(Cl)ccn1	0	-
CCOC(=O)c1c(C)n(C)c2ccc(O)cc12	0	0
CCOC(=O)c1c2ccc(O)cc2n2ccccc12	0	69
O=C1c2cnccc2CN1c1cc(F)ccc1F	35	0
COC(=O)c1sccc1N1Cc2ccncc2C1=O	0	0
CC1CN(C(=O)C2CCN(S(=O)(=O)c3cccnc3)CC2)c2ccccc2O1 (configuration not stated)	-	0
SMILES	HCMV NEC inh	GIV-Gai inh
CCN(CC)c1ccc(/C=c2\sc3n(c2=O)C(c2ccc(OC)cc2OC)C(C(C)=O)=C(C)N=3)c(OC)c1 (configuration not stated)	0	85
COc1ccc(C2C(C(C)=O)=C(C)N=c3s/c(=C\c4cc(C)n(-c5ccccc5)c4C)c(=O)n32)c(OC)c1 (configuration not stated)	0	0
CC1(C)CC(=O)C2=C(C1)OC1=C(C(=O)CC(C)(C)C1)C2c1cccnc1	0	-
Cc1cc(C)n(-c2nc3cc(Cl)ccc3nc2Nc2ccc3c(c2)n(C)c(=O)n3C)n1	0	3.9
Cc1cc(C)n(-c2nc3cc(Cl)ccc3nc2Nc2ccc(C)c(F)c2)n1	0	0
CCN(CC)c1ccc2cc(C(=O)NC3CCCCC3)c(=O)oc2c1	0	-
CCN(CC)c1ccc2cc(C(=O)Nc3ccc(NC(C)=O)cc3)c(=O)oc2c1	0	83
CCN(CC)c1ccc2cc(C(=O)Nc3cccc(C(F)(F)F)c3)c(=O)oc2c1	0	0
CCN(CC)c1ccc2cc(NC(=O)CCC(=O)O)c(=O)oc2c1	0	84
CCC(Oc1ccccc1)C(=O)Nc1ccc(Cl)cn1 (configuration not stated)	0	0
C=CCn1c(NCc2ccc(Cl)cc2)nc2ccccc21	0	0
CCOC(=O)c1ccc(NC(=O)c2nn(C)c(C(F)(F)F)c2Cl)cc1	0	0
Cc1nc(-c2ccc(C(=O)N3CCC(C(=O)Nc4nccs4)CC3)cc2)no1	0	0
CN1c2cc(Cl)ccc2-c2nc(SCC(N)=O)ncc2S1(=O)=O	0	0
CN1c2cc(Cl)ccc2-c2nc(SCC(=O)NC3CCCC3)ncc2S1(=O)=O	75	0
COc1ccc(CCNc2cc(C)nc3c(C)c(-c4ccc(OC)c(OC)c4)nn23)cc1OC	0	0
Cc1ccc(S(=O)(=O)N2CCN(c3cc(=O)n4nc(-c5ccccc5)sc4n3)CC2)cc1	0	0
O=c1cc(N2CCN(S(=O)(=O)c3ccc(F)c(F)c3)CC2)nc2sc(-c3ccccc3)nn12	60	0
CCN(CC)c1ccc(C=C2C(=O)OC3(CCCC3)OC2=O)cc1	0	-26
CCN(CC)c1ccc(C=C2C(=O)OC(c3ccccc3)OC2=O)cc1 (configuration not stated)	0	-

Compound activity: PubChem BioAssay, ICCB-Longwood Screening Facility, Harvard Medical School
